According to PMC7719495 (BioMed Research International, 2020):

System: mice brain capillary endothelial cells (BCECs)
Assay: AMPB uptake by BCECs, HPLC
Assay type: cell-based
Details: 40 g/L albumin + 2.16 μM AMPB; 30, 60, 120 and 180 min, each p < 0.01 vs AMPB group
Protocol: The mice brain capillary endothelial cells (BCECs, cat. no. BNCC35187) were purchased from Beijing Beina Chuanglian Biotechnology Research Institute (Beijing, China). BCECs were resuscitated in a constant temperature water bath at 37°C and then inoculated in a petri dish. The cells were cultured with the 1640 medium containing 10% FBS in a 5% CO2 cell incubator at 37°C. The culture medium was changed every other day, and the cells were digested with 0.25% trypsin when they converged and proliferated to form a full layer at the bottom of the dish. 1 mL cell suspensions were seeded in 12-well plates at a density of 1 × 10^5 cells/mL per well. The drug was administered after the cells being completely adherent to the wall. 2.16 μM AMBP solution was prepared with the 1640 medium and then was used to prepare POS solution at concentrations of 2.85 μM, 5.71 μM, and 11.42 μM, 5 μM zosuquidar, 5 μM Ko143, 1 mM elacridar, and 40 g/L albumin solution, respectively.
The cells were randomly divided into the following 8 groups: 2.16 μM AMBP, 2.16 μM AMBP+POS (2.85 μM, 5.71 μM, and 11.42 μM), 2.16 μM AMBP+5 μM zosuquidar, 2.16 μM AMBP+5 μM Ko143, 2.16 μM AMBP+1 mM elacridar, and 2.16 μM AMBP+40 g/L albumin. Three wells were set at each time point in each group and cultured at 37°C. Cell samples were collected at 30 min, 60 min, 120 min, and 180 min after drug administration, respectively. […]

serum albumin: Human albumin (CSL Behring), 40 g/L albumin solution added to BCECs
effect on AMPB uptake by BCECs: strikingly inhibited
